# scFv variants of Ab-14 (light chain) against a SARS-CoV-2 spike peptide

Source: Engelhart et al. 2022 (doi:10.1038/s41597-022-01779-4), MIT Lincoln Laboratory and A-Alpha Bio; data file from the FLAb repository.

Target peptide (SARS-CoV-2 spike, HR2 region): PDVDLGDISGINAS

Each scFv is VH, the linker GGGGSGGGGSGGGGS, VL, as in the parent Ab-14, and differs from it in the CDRs of the light chain only.
VH: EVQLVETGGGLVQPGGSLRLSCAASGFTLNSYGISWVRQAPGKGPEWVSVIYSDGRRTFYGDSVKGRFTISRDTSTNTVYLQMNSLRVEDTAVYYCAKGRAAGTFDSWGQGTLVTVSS
VL: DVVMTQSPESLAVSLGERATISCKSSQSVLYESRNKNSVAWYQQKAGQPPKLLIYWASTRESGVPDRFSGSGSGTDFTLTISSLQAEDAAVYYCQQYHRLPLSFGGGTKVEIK

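The starting antibody came from a phage panning campaign against this peptide. The library (AAYL50) carries one to three amino acid substitutions per variant, with no insertions or deletions. The assay is AlphaSeq: two haploid yeast populations carry antibody and antigen on their surface. Pairs that bind mate more often; barcode pairs of the diploids are counted by sequencing. Each replicate has its own calibration line, from reference interactions of the BCL2 family. Each pool was mated in three replicate cultures.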

Substitutions are numbered in sequence along the VL above, starting at 1 (not Kabat).
All variants listed here change V39 of the VL, counted from its first residue.
The Kd shown is the geometric mean over detected replicates; a lower Kd is a better binder.
A pair that was not seen in any replicate is written "no signal"; this usually means weak binding, but a binder can also be missed.
In this assay the parent's reference entry averaged 4.4 nM; its copy inside this library read 48 nM.
Three control strains display no target. For library AAYL50, 18% of the pairings with them gave a signal, with a median of 15 µM and one signal in twenty below 970 nM, so weak values seen in few replicates may be background. The control count says in how many pairings with the empty strains this scFv gave a signal.

* K36W/V39P/L100Y: no signal (0 of 3 replicates; controls 0 of 9)
* N37S/V39N/Q96L: no signal (0 of 3 replicates; controls 3 of 9)
* S26R/V39G/R60F: no signal (0 of 3 replicates; controls 1 of 9)
* S33V/V39K/Q96W: 8.4 µM (1 of 3 replicates; controls 3 of 9)
* N37L/V39D/R60F: 150 µM (1 of 3 replicates; controls 4 of 9)
* V39K/A40M/Y97I: 9.5 µM (2 of 3 replicates; controls 1 of 9)
* S28Q/V39W/W56I: no signal (0 of 3 replicates; controls 0 of 9)
* K36T/S38D/V39E: 6.7 µM (2 of 3 replicates; controls 6 of 9)
* V39M/E61W/L102E: 31 µM (1 of 3 replicates; controls 4 of 9)
* V39M/T59P/P101R: no signal (0 of 3 replicates; controls 4 of 9)
* S28Q/V39L/A57M: no signal (0 of 3 replicates; controls 1 of 9)
* V39I/A40Q/L102A: no signal (0 of 3 replicates; controls 2 of 9)
* S25I/L30T/V39D: 19 µM (1 of 3 replicates; controls 2 of 9)
* S33R/V39I/R99Q: 21 nM (3 of 3 replicates; controls 5 of 9)
* V39Y/Q95A/H98Y: no signal (0 of 3 replicates; controls 0 of 9)
* L30I/N37P/V39D: no signal (0 of 3 replicates; controls 2 of 9)
* S38G/V39C/W56F: 4.4 µM (1 of 3 replicates; controls 2 of 9)
* K24M/V39T/L102F: 15 µM (1 of 3 replicates; controls 3 of 9)
* V29T/V39T: no signal (0 of 3 replicates; controls 1 of 9)
* V39R/R60A/E61I: 390 µM (1 of 3 replicates; controls 5 of 9)
* V39F/S58W/S62A: 7.9 µM (2 of 3 replicates; controls 0 of 9)
* S33P/R34E/V39T: 2.1 mM (1 of 3 replicates; controls 5 of 9)
* V39C/Y97G: 28 µM (3 of 3 replicates; controls 1 of 9)
* V39D/S62T/Q95E: 8.0 µM (1 of 3 replicates; controls 5 of 9)
* S26M/V39Y/S103M: no signal (0 of 3 replicates; controls 0 of 9)
* V39N/Y97L/R99P: 7.4 µM (2 of 3 replicates; controls 3 of 9)
* S33C/V39F: 7.9 nM (3 of 3 replicates; controls 1 of 9)
* V39H/A40G/Y97A: 18 µM (1 of 3 replicates; controls 3 of 9)
* V39R/S58G/E61M: 120 µM (2 of 3 replicates; controls 5 of 9)
* K36D/V39S/R60I: 77 µM (2 of 3 replicates; controls 4 of 9)
* L30G/V39T/Q95L: 160 µM (1 of 3 replicates; controls 3 of 9)
* S25F/V39L/Q95V: 12 µM (2 of 3 replicates; controls 1 of 9)
* V39N/Q96M/P101S: 8.6 µM (1 of 3 replicates; controls 1 of 9)
* K36N/N37A/V39R: 360 µM (3 of 3 replicates; controls 6 of 9)
* V29W/S38V/V39L: no signal (0 of 3 replicates; controls 0 of 9)
* V39D/Q96F/R99K: no signal (0 of 3 replicates; controls 0 of 9)
* S38M/V39S/A57M: 15 µM (1 of 3 replicates; controls 3 of 9)
* V39S/W56T/S58W: 140 µM (1 of 3 replicates; controls 4 of 9)
* E32V/K36Y/V39C: 10 µM (1 of 3 replicates; controls 1 of 9)
* N35G/N37V/V39T: 90 µM (2 of 3 replicates; controls 5 of 9)
* V39K/E61F: 17 µM (2 of 3 replicates; controls 5 of 9)
* Q27K/V39Y/W56K: 89 nM (3 of 3 replicates; controls 0 of 9)
* Y31H/V39Y: 8.4 µM (3 of 3 replicates; controls 4 of 9)

Again, the first 6 entries without any signal:

- K36W/V39P/L100Y = no signal (0 of 3 replicates; controls 0 of 9)
- N37S/V39N/Q96L = no signal (0 of 3 replicates; controls 3 of 9)
- S26R/V39G/R60F = no signal (0 of 3 replicates; controls 1 of 9)
- S28Q/V39W/W56I = no signal (0 of 3 replicates; controls 0 of 9)
- V39M/T59P/P101R = no signal (0 of 3 replicates; controls 4 of 9)
- S28Q/V39L/A57M = no signal (0 of 3 replicates; controls 1 of 9)